One series deals with Wister rats. Particulars: rat, in vivo.
The subject of series [1] is Swiss mice. Particulars: mouse, in vivo.
For series [2], the system named is Swiss mice. Particulars: male, mouse, in vivo.

SMILES strings stand for the structures.

Turning to `CN1CC[C@]23c4c5ccc(O)c4O[C@H]2[C@@H](O)C=C[C@H]3[C@H]1C5` [morphine], in the series with Wister rats, the “number of total abstinence signs compared with saline group” value is “significant increase”. Further, in the series with Swiss mice [1] (male, Swiss, 10 mg/kg), the “Time spent in drug-paired place” value was 566.6 ± 131.1 min. The “induction of Conditioned Place Preference” value with Swiss mice [1] is “induced significant Conditioned Place Preference”. Further, in the series on Swiss mice [2], the Percent of jumping is 100%. For the same compound, in the series on Swiss mice [2] (sc), the Number of jumping stood at 49.5 ± 56.0 and the loss weight came to 1.6 ± 0.2 g.

(Values after patent publication US7119100B2 (priority 2001, dated 2006).)
